This assay addresses T1, rat TRPV-1 receptor (Rattus norvegicus, UniProt O35433).
T1 construct: expressed in transfected cells; host or cells: HEK-293T
The experiment in a line: Dose response curve, temperature activation of the TRPV-1 receptor in transfected HEK-293T cells. The format is cell-based. The settings on record: relative fluorescence at 50° C., HEK-293T cells transfected with rat TRPV-1, two independent experiments, ± standard deviation. The procedure: The synthesized compounds were evaluated in HEK-293T cell cultures transfected with cDNA from rat TRPV receptors. The compound activity was based on the capsaicin and temperature activation mechanism of the TRPV-1 receptor, which raised the levels of intracellular calcium as a consequence of the opening of the ionic channel of the receptor. The influx of calcium was measured with a fluorescent probe, Fluo 4-AM, as in the presence of an antagonist the calcium influx is blocked by the inactivation of the TRPV-1 receptor and cellular fluorescence decreases. […]
Once the rat TRPV-1 receptor had been transfected, Fluo-4 AM charged HEK 293T cells were plated out in 48-well plates at a cellular density of 50,000 cells per well, with a transfection percentage of 40-50%. […] The fluorescence measurements were then read on a real time PCR system that allows an increment of 1° C. every 35 seconds from 36° C. to 55° C. for compounds and from 22-56° C. for transfected cells in absence of compounds. Reading of the fluorescence measurement was done using a FAM filter (483-533nM). The fluorescence data were obtained for each temperature and each compound, and have been corrected subtracting the cellular background and the base line corresponding to the fluorescence at the start of the ramp (22 or 36° C.) for each sample. […]

Chains of the proteins cited; added tags and fusions are not shown.
UniProt O35433, whole entry: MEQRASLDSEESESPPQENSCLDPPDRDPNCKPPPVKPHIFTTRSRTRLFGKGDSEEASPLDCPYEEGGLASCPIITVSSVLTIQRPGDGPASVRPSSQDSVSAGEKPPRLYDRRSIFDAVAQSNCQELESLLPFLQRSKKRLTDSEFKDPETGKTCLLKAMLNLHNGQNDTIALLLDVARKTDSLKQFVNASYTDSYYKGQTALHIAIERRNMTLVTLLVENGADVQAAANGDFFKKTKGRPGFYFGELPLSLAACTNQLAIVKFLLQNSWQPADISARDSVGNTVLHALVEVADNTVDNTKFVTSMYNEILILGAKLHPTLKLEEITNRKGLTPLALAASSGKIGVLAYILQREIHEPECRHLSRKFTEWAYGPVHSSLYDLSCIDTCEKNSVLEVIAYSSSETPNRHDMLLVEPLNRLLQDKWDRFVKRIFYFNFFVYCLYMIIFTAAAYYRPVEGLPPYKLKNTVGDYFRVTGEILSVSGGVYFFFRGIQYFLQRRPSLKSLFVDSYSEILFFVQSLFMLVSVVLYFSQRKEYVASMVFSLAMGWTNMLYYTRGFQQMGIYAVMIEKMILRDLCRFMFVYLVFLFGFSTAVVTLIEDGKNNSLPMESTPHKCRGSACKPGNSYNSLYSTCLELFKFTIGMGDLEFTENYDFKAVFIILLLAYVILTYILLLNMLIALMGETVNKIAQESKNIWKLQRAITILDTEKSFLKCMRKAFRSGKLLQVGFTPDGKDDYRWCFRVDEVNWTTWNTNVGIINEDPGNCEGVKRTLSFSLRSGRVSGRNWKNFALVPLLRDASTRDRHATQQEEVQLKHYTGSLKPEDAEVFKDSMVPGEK

Each structure is given as a SMILES string.

Turning to `CC(C)(C)c1ccc(NC(=O)N2CCN(c3ncccc3Cl)CC2)cc1` [BCTC, N-(4-tertiarybutylphenyl)-4-(3-cholorphyridin-2-yl)tetrahydropyrazine-1(2H)-carbox-amide], the IC50 – broadly, the concentration at which inhibition is half-maximal – was determined as 2.12 ± 0.354 nM (1,3,4-thiadiazole alkylamide derivatives) and 2.12 ± 0.354 nM (chalcone derivatives).

(Values after patent publication US20160039778A1, “TRPV-1 RECEPTOR ANTAGONIST COMPOUND DERIVED FROM 1,3,4-THIADIAZOLE ALKYLAMIDES AND CHALCONES” (UNIVERSIDAD DE CONCEPCION, priority 2012, published 2016).)
